# Assay results as given in PubChem BioAssay AID2052 (NMMLSC, 2009).
# Only a part is listed here, and it is no random draw. Some of these compounds have results that are not shown, active ones among them. Active and inactive are the calls of the source.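 Rule for the calls: active = response, share of CD8 T cells binding vesicles, and their 90th percentile fluorescence all below set limits (cut at about 80% in these data, passing the limit was not always enough); inactive = the rest, inconclusive results apart.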
# Experiment: modulators of CD8 T cell-vesicle binding, primary screen, mouse 2C CD8+ T cells, flow cytometry (AID 2052);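 note: values below 100% mean blocked vesicle binding to the CD8+ T cells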
# Conditions: 2C CD8+ T cell-vesicle binding, at 7 µM, hits give low values
# How it was run: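 Benchmarks: naked versus QL9-loaded vesicles / Assay system: purified 2C TCR transgenic mouse naive CD8+ T cells / Technique: high-throughput flow cytometry with anti-B7-1 and anti-CD8 staining / Timing: Cell–vesicle co-incubation 1.5 h at 37 °C, staining 20 min on ice / Read-out: percent CD8+ FL2 mean versus row control / Probe or stimulus: QL9-loaded Drosophila micro-vesicles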
row,SMILES,response (vesicle binding)
1,COc1ccc(Cl)cc1C(=O)NCC1(N(C)C)CCCCC1,inactive: 78%
2,COc1cccc(C(=O)NCC2(N3CCCCC3)CCCCC2)c1,inactive: 278%
3,O=C(NCC1(N2CCCCC2)CCCCC1)c1cccc(Cl)c1,inactive: 119%
4,CN(C)C1(CNC(=O)c2ccc(Br)cc2)CCCCC1,inactive: 63.1%
5,COc1cc(C(=O)NCC2(N(C)C)CCCCC2)c([N+](=O)[O-])cc1OC,inactive: 30.6%
6,COc1ccc(Br)c(C(=O)NCC2(N3CCCCC3)CCCCC2)c1,inactive: 247%
7,CC(C)Oc1ccc(C(=O)NCC2(N(C)C)CCCCC2)cc1,inactive: 147%
8,CN(C)c1cccc(C(=O)NCC2(N(C)C)CCCCC2)c1,inactive: 471%
9,O=C(OC1CN2CCC1CC2)C(CO)(c1ccccc1)c1ccccc1 (centres undefined),inactive: 374%
10,COc1cc(SC)ccc1C(=O)NCC1(N(C)C)CCCCC1,inactive: 198%
11,CCN(CC)CC(C)C(C)OC(=O)C(O)(c1ccccc1)c1ccccc1 (centres undefined),inactive: 299%
12,CC(C)N1C(=O)CC2(CCN(CCOC(=O)C(O)(c3ccccc3)c3ccccc3)CC2)C1=O,inactive: 524%
13,Cc1ccc(C(=O)NCC2(N3CCCCC3)CCCCC2)cc1,inactive: 235%
14,O=C(NCC1(N2CCCCC2)CCCCC1)c1cc([N+](=O)[O-])ccc1Cl,inactive: 487%
15,CN1[C@@H]2CC[C@H]1CC(OC(=O)C(O)(c1ccccc1)c1ccccc1)C2 (some centres undefined),inactive: 568%
16,O=C(NCC1(N2CCCCC2)CCCCC1)c1cc(F)c(F)cc1Cl,inactive: 132%
17,C=CCN1CCN(CCOC(=O)C(O)(c2ccccc2)c2ccccc2)CC1,inactive: 293%
18,COc1ccc(C(=O)NCC2(N(C)C)CCCCC2)cc1,inactive: 119%
19,O=C(NCC1(N2CCCCC2)CCCCC1)c1cccc(Br)c1,inactive: 251%
20,Cc1cc(C(=O)NCC2(N3CCCCC3)CCCCC2)ccc1[N+](=O)[O-],inactive: 204%
21,CCN1CCCC(OC(=O)C2(O)c3ccccc3C=Cc3ccccc32)C1 (centres undefined),inactive: 155%
22,CN(C)C1CCCC1OC(=O)C(O)(c1ccccc1)c1ccccc1 (centres undefined),inactive: 207%
23,CN(C)c1ccc(C(=O)NCC2(N(C)C)CCCCC2)cc1,inactive: 758%
24,Cc1ccccc1C(=O)NCC1(N2CCCCC2)CCCCC1,inactive: 242%
